Screening data as filed in PubChem BioAssay.
The list is not random: actives were taken first. Their share in the collection is about 0.92%.
B2AR arrestin – beta2AR (human) beta-arrestin recruitment activity; hit rate 0.02% among 330,000; AID 492947; beta-arrestin recruitment to beta2AR, cell-based reporter; Potency, µM (top dose mostly 46.1 µM), usual class: activators; P07550; note: nearly all actives have a fitted effect of over 65% in size
miR-21 reporter – raises the signal of a miR-21 reporter; AID 2288; 340,000 tested, under 10 active; Potency, µM (doses to about 38.3 µM); HeLa miR-21 FLuc reporter, luciferase, 48 h; active = well fitted rising curve with a large enough effect; inconclusive = small, poorly fitted or top-dose-only effect; inactive = no such curve, though single readings can be large or run the other way;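 note: miR-21 action dims this reporter so a rising signal means less miR-21 action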
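HeLa cells stably expressing CMV-driven firefly luciferase with a downstream miR-21 binding sequence, endogenously expressing miR-21, were treated with titrations (up to about 40uM final) for 48 hours at 37 degree Celsius. Luciferase luminescence was read after lysis.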
uPA surface inh – blocks generation of uPA at the cell surface; Potency, µM (titrated, usually from 38.3 µM), usual class: inhibitors; cell surface uPA generation assay, qHTS; hit rate 0.31% among 330,000; active = well fitted inhibition curve with a large enough effect; inconclusive = small, poorly fitted or top-dose-only effect; inactive = no such curve, though single readings can be large or run the other way; tested in mouse RAW 264.7 cells; note: nearly all actives have a fitted effect of over 55% in size
Giardia killer – kills Giardia lamblia. Giardia lamblia trophozoite viability. activity change, % at 7.66 µM, hits read low. hit rate 0.15% among 340,000. AID 540267; in the data active = activity change below about -80%; inconclusive = between about -30% and that limit;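 note: parasites exposed to compound for two days anaerobically before the ATP read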
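ATP-content bioluminescence gauges trophozoite survival. Cells (100/well) receive compound and incubate anaerobically for 48 hrs at 37 deg C; detection reagent follows for 15-30 min at room temperature.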
Coupling enz – coupling enzyme interference in Giardia aldolase counter-screen | coupling enzyme system counterscreen, AmpLite Red fluorescence | activity change, negative = inhibition, % at 58.2 µM, hits read low | hit rate 0.67% among 290,000 | AID 2472; in the data active = activity change below about -30%
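Activity here indicates interference with the coupling reaction, not aldolase inhibition. Compounds at 57.5 uM final met coupling enzymes for 10 min at RT; substrate and AmpLite Red detection followed, with a 525/598 nm fluorescence read after 20 min.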
GALK inh – galactokinase (human) inhibition. P51570. Purified GALK, Kinase-Glo residual ATP luminescence. Potency, µM (top dose mostly 57.5 µM), hits mostly inhibitors. hit rate 0.007% among 270,000. AID 1868
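5 nM enzyme, 35 uM ATP, 100 uM galactose, 20 mM HEPES pH8.0, 5 mM MgCl2; 1 h RT; residual ATP by Kinase-Glo Plus luminescence, qHTS format.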
Large screens that a line does not name were inactive. Unless noted, calls come from the whole dose curve; as a rule, active = well fitted curve in the direction sought with a large enough effect; inconclusive = small, poorly fitted or top-dose-only effect, or another doubt; inactive = no such curve, though single readings can be large; an effect the other way counts as inactive or inconclusive.

COc1ccc(/C=N/NC(=O)c2nn(-c3ccc(Cl)cc3)c(=O)c3c(N)scc23)cc1	none
CCOC(=O)c1nn(-c2ccc(OC)cc2)c(=O)c2c(N)scc12	Coupling enz -53
CCOC(=O)c1nn(-c2ccccc2)c(=O)c2c(N)sc(C)c12	none (no result: miR-21 reporter, uPA surface inh, Giardia killer, Coupling enz, GALK inh)
COc1ccc(/C=N/NC(=O)c2nn(-c3ccccc3)c(=O)c3c(N)scc23)cc1	Coupling enz -59
CCOC(=O)c1c(-c2cccs2)csc1N	none
CCOC(=O)c1c(-c2ccco2)csc1N	Coupling enz -31
Cc1cc(C)c(S(=O)(=O)Nc2ccc[nH]c2=O)c(C)c1	Coupling enz -72
Cn1c2c(c(=O)n(C)c1=O)[C@@]1(C(=O)Nc3ccccc31)C(C#N)=C(N)O2	Coupling enz -50
COc1ccc(-n2c(C)cc(C(=O)CN3C(=O)NC4(CCCc5sccc54)C3=O)c2C)cc1 (stereo unspecified)	uPA surface inh 11µM
COCCNC(=O)C1(C(F)(F)F)C/C(=C\Cc2ccccc2)CCCO1 (stereo unspecified)	Giardia killer inconclusive (no result: B2AR arrestin, miR-21 reporter, uPA surface inh, GALK inh)
CN1CC(=O)N(CC(=O)Nc2ccc(Cl)c(C(F)(F)F)c2)c2ccccc2C1=O	none (no result: B2AR arrestin, uPA surface inh, Giardia killer, Coupling enz, GALK inh)
CN1CC(=O)N(CC(=O)Nc2ccc(N(C)C)cc2)c2ccccc2C1=O	Coupling enz -42 (no result: B2AR arrestin)
Cc1ccc(S(=O)(=O)N2CCN(c3nc(-c4ccc(C)s4)nc4ccccc34)CC2)cc1	none (no result: B2AR arrestin, miR-21 reporter, uPA surface inh, Coupling enz, GALK inh)
CN(C)c1ccc(NC(=O)N2CCOCC2)cc1	Coupling enz -32
CC(=O)Nc1nonc1-c1nnc(SCc2ccc(F)cc2Cl)n1C	none (no result: B2AR arrestin, uPA surface inh, Giardia killer, Coupling enz, GALK inh)
O=C(O)c1cc(Cl)c(Cl)cc1C(=O)N1CCCC1	Giardia killer -91
Cn1c(=O)n(C)c2cc(N3CCOCC3)c(NS(=O)(=O)c3ccc(Br)cc3)cc21	none (no result: B2AR arrestin, uPA surface inh, Giardia killer, Coupling enz, GALK inh)
CCOC(=O)N/N=C\c1ccc([N+](=O)[O-])s1	Giardia killer -99
Cc1cc(C(=O)N/N=C/c2ccc([N+](=O)[O-])s2)n[nH]1	miR-21 reporter inconclusive, Giardia killer -90
Cc1ccc(C(=O)N/N=C/c2ccc([N+](=O)[O-])s2)cc1	miR-21 reporter inconclusive, Giardia killer -93 (no result: Coupling enz)
Cc1cc(C(=O)N/N=C/c2ccc(C)s2)n[nH]1	none
CCOC(=O)c1cnc2ccc(C)cc2c1Nc1ccc(N(CC)CC)cc1	none (no result: B2AR arrestin, uPA surface inh, Giardia killer, Coupling enz, GALK inh)
COc1ccc(CCC(=O)NCc2nc3cccnc3n2Cc2ccc(OC)cc2)cc1	none (no result: B2AR arrestin, uPA surface inh, Giardia killer, Coupling enz, GALK inh)
O=C(Nc1ccncc1)C1CCN(S(=O)(=O)c2ccc(Cl)c(C(F)(F)F)c2)CC1	uPA surface inh 11µM (no result: miR-21 reporter, Coupling enz, GALK inh)
Cc1ccnc(NC(=O)C2CCN(S(=O)(=O)c3ccc(Cl)c(C(F)(F)F)c3)CC2)c1	none (no result: miR-21 reporter, Coupling enz, GALK inh)
O=[N+]([O-])c1cccc(C([O-])=C(C(=S)Nc2cccc3ccccc23)[n+]2ccccc2)c1	none (no result: B2AR arrestin, miR-21 reporter, Coupling enz, GALK inh)
O=[N+]([O-])c1cccc(/C([O-])=C(/C(=S)Nc2cccc3ccccc23)[n+]2ccccc2)c1	Coupling enz -42
COc1ccc2c(c1)Cc1sc(NC(=O)c3ccccc3)nc1-2	Coupling enz -36
CCCC(=O)C1=C(O)C(C(=O)OC)C(C)(C)CC1=Nc1ccc(N)cc1 (stereo unspecified)	none (no result: uPA surface inh)
CCCC(=Nc1ccc(N)cc1)C1=C(O)C(C(=O)OC)C(C)(C)CC1=O (stereo unspecified)	Coupling enz -41
Clc1ccc2oc(-c3ccccc3)cc(=NCCCN3CCOCC3)c2c1	Giardia killer -87
O=C(NC1CCCCCC1)c1cc2c(Cl)nc3ccccc3c2s1	none (no result: B2AR arrestin, uPA surface inh, Giardia killer, Coupling enz, GALK inh)
CC(=O)NC1N=C(C)N(c2ccccc2)C1=O (stereo unspecified)	Coupling enz -78
CC(C)(C)NC(=O)NC(=O)CN1CCc2ccccc21	Coupling enz -39
Cc1cccc2c3c(ccc12)C1=C(C(=O)C3=O)[C@@H](C)CO1	Coupling enz -42 (no result: B2AR arrestin, miR-21 reporter, uPA surface inh, Giardia killer, GALK inh)
CC1COc2ccccc2C1=O (stereo unspecified)	none (no result: B2AR arrestin, miR-21 reporter, uPA surface inh, Giardia killer, GALK inh)
O=C(CN1C(=O)c2ccccc2S1(=O)=O)c1ccc2c(c1)OCCO2	miR-21 reporter inconclusive, uPA surface inh 2µM, Giardia killer inconclusive
O=C(CN1C(=O)c2ccccc2S1(=O)=O)c1ccc2c(c1)OCCCO2	miR-21 reporter inconclusive, Giardia killer inconclusive
